Earlier results on one substance are cited in patent US20250161332A1, “NON-PSYCHOACTIVE MULTI-CANNABINOID AND POLYSACCHARIDE AND POLYSACCHAROPEPTIDE-BASED THERAPEUTIC COMPOSITIONS AND METHODS OF THEIR ADMINISTRATIO” (Pebble Global Holdings, priority 2021, published 2025).

This series has as its system PBLs. The conditions noted are these: IL-2 100 U/ml, PSK 100 μg/ml; cited from earlier work.

For the substance “IL-2: IL-2, used at 100 U/ml to stimulate lymphocytes”, the proliferation rate is on record as 3 fold.
